Literature values, collected in patent US20160034667A1, “TAILORED DRUG THERAPIES AND METHODS AND SYSTEMS FOR DEVELOPING SAME” (COMPANION DX REFERENCE LAB, LLC, priority 2014, published 2016).

| Compound | Therapeutic Range (in vivo) | Therapeutic Range, trough (trough) |
| --- | --- | --- |
| CCN(CC)CCNC(=O)c1ccc(N)cc1 | PA 4-10 mg/L, |  |
| C=C[C@H]1C[N@@]2CC[C@H]1C[C@@H]2[C@@H](O)c1ccnc2ccc(OC)cc12 [Quinidine] |  | trough 2.3-5.0 mg/L |
